Laboratory results published in PubChem BioAssay AID1671463 (Sanford-Burnham Center for Chemical Genomics, 2021).
This is a selection; strong and weak results do not stand in their true shares. Active and inactive are the calls of the source. No stated cut-off is given here; in the data, active means activation above about 40%; inactive means the rest.

Amino acid sequences for entries named in this document (tags omitted). A change or cut given only in a name is not applied to a line headed by its entry.
UniProt P16066: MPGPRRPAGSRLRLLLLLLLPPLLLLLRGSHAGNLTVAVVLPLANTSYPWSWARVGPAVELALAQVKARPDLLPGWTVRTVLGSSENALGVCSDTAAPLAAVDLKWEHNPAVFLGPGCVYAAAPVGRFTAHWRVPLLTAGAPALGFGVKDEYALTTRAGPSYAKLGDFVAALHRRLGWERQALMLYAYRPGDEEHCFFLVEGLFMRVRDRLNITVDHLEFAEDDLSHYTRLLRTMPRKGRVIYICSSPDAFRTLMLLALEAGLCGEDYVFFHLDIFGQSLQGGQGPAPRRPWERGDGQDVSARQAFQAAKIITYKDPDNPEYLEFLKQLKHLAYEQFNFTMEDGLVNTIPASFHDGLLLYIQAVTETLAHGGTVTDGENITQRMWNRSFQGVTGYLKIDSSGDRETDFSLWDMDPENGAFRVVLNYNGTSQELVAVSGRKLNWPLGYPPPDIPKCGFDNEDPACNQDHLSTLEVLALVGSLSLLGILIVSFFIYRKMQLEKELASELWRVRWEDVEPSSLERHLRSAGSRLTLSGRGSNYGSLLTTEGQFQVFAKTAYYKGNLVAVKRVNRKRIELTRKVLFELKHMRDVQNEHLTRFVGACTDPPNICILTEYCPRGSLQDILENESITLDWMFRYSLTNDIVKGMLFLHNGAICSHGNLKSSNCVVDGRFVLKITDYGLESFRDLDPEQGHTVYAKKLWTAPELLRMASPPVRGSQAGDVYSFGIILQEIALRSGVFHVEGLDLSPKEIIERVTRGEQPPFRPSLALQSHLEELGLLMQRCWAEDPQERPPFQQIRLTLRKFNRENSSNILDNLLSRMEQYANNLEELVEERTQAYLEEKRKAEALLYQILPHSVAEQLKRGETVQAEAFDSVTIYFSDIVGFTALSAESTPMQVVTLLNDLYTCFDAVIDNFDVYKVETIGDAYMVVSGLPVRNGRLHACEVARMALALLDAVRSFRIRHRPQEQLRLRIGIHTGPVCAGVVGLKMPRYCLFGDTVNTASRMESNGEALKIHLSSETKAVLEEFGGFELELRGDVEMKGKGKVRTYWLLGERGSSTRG

target: Atrial natriuretic peptide receptor 1 (Homo sapiens) (UniProt P16066); experiment: GC-A stimulated cGMP production enhancers – HEK293 GC-A cells, cGMP TR-FRET, EC30 ANP, primary screen (AID 1671463); settings: at 10 µM, active compounds read high, 0% at EC30 ANP, 100% saturating ANP

SMILES	activation
N#CCCN(C(=O)COC(=O)C(O)(c1ccccc1)c1ccccc1)c1ccc(F)cc1	inactive: -3.56%
CN(C(=O)Cc1ccccc1)[C@@H]1CC[C@]2(CCCO2)C[C@H]1N1CCCC1	inactive: 4.53%
CCOP1(=S)c2c(C)nn(CCC#N)c2N=C(c2ccc(F)cc2)N1C (stereo not drawn)	inactive: 4.81%
CN(C)C(=O)c1cc([N+](=O)[O-])cc2c1-c1c(cc([N+](=O)[O-])cc1[N+](=O)[O-])C2=O	inactive: -19.9%
O=[N+]([O-])c1ccc2c(c1)nnn2O	inactive: 2.75%
CN(C(=O)Cc1ccc(Cl)c(Cl)c1)[C@H]1CC[C@@]2(CCCO2)C[C@@H]1N1CCCC1	inactive: 2.84%
NC(=O)Nc1ccc([As](=O)(O)O)cc1	inactive: -0.19%
CN(C)C1(CNC(=O)c2ccc(S(C)(=O)=O)cc2)CCCCC1	inactive: -1.33%
O=C(/C=C/c1ccccc1)OC1CN2CCC1CC2 (stereo not drawn)	inactive: -3.43%
CCCC1OP(=O)(Nc2ccccc2)OCC1CC (stereo not drawn)	inactive: 1.66%
Cc1nn(-c2ccccc2)c2c1P(=O)(N1CCOCC1)N(C)C(c1ccccc1)=N2 (stereo not drawn)	inactive: -5.03%
Cc1ccc(C(=O)OC2CN3CCC2CC3)cc1 (stereo not drawn)	inactive: 0.01%
CC1CCC(C(C)C)C(OP(=O)(Nc2ccccn2)c2ccccc2)C1 (stereo not drawn)	inactive: -24.1%
Nc1cccc([As](=O)(O)c2ccccc2)c1	inactive: 3.02%
NS(=O)(=O)c1cccc(NC(=O)COC(=O)C(O)(c2ccccc2)c2ccccc2)c1	inactive: -5.35%
O=P1(Nc2ccc(Br)cn2)COc2ccccc2OC1	inactive: 5.6%
O=[As](O)(c1cccs1)c1cccs1	inactive: 4.61%
Cc1ccc(OCC(=O)OC2CN3CCC2CC3)cc1 (stereo not drawn)	inactive: 2.83%
Cc1ccc(S(=O)(=O)N(CCCN)CCCc2c(C)nc(N)[nH]c2=O)cc1	inactive: -0.05%
O=P1(Nc2ncccn2)COc2ccccc2OC1	inactive: 1.09%
Clc1n[nH]nc1-c1nn[nH][15n]1	inactive: 0.63%
O=P1(N(CCCl)CCCl)NCCC(C(F)(F)F)O1 (stereo not drawn)	inactive: -3.66%
CC(C)(C)C(=O)NC(Sc1ncccn1)C(Cl)(Cl)Cl (stereo not drawn)	inactive: 5.81%
CCC1=CC2Cc3nc4ccc(Cl)cc4c(N)c3C(C1)C2 (stereo not drawn)	inactive: -52.8%
O=P1(Nc2ccccn2)COc2ccccc2OC1	inactive: 0.64%

SMILES	activation
CCOP(=O)(NC(=NC(C)c1ccccc1)NC(C)c1ccccc1)OCC (stereo not drawn)	inactive: -7.82%
CN(CCCl)Cc1cc(Cl)c(NC2=NCCN2)c(Cl)c1	inactive: 1.56%
CCOP(=O)(Nc1ccc(C)cn1)OCC	inactive: 0.85%
CN(C(=O)Cc1ccc(Cl)c(Cl)c1)[C@@H]1CCCC[C@H]1N1CCCC1	inactive: -1.59%
CC(C)/C=N\N=C(\N)N[N+](=O)[O-]	inactive: 3.3%
CN(C(=O)Cc1ccc(Cl)c(Cl)c1)C1CCCC[C@@H]1N1CCCC1 (stereo partly drawn)	inactive: -3.64%
CC1(CBr)Cn2c(nc3ccccc3c2=O)S1 (stereo not drawn)	inactive: 10.1%
COc1ccccc1CNC(=O)COC(=O)C(O)(c1ccccc1)c1ccccc1	inactive: 0.41%
O=C(O)C(=O)c1ccc(N(CCCl)CCCl)cc1	inactive: -1.06%
O=C(COc1ccccc1)OC1CN2CCC1CC2 (stereo not drawn)	inactive: -0.47%
O=C(Nc1ccncc1[N+](=O)[O-])c1ccc([N+](=O)[O-])cc1[N+](=O)[O-]	inactive: 1.23%
COP1(=S)c2c(C)nn(CCC#N)c2N=C(c2ccc(F)cc2)N1C (stereo not drawn)	inactive: 2.35%
COC(=O)C1(C)COP(=O)(N2CCCC2)OC1 (stereo not drawn)	inactive: 2%
CCC(C)N(CC(C)C)C(=S)SC(NC(C)=O)C(Cl)(Cl)Cl (stereo not drawn)	inactive: -26.9%
O=C(OC1CN2CCC1CC2)c1cccc([N+](=O)[O-])c1 (stereo not drawn)	inactive: 0.77%
CCOC(=O)c1ccc(NC(=O)C(C)(CCl)SC)cc1 (stereo not drawn)	inactive: 1.76%
COP(=O)(OC)N1CC1c1ccccc1 (stereo not drawn)	inactive: -0.85%
CCCCOc1ccc(C(=O)NCC2(N3CCCCC3)CCCCC2)cc1OC	inactive: 0.2%
Cc1cc(SC(NC(=O)c2ccccc2)C(Cl)(Cl)Cl)nc(C(C)C)n1 (stereo not drawn)	inactive: 2.64%
O=C(O)C(O)c1ccc(N(CCCl)CCCl)cc1 (stereo not drawn)	inactive: -1.2%
CCOC(=O)Nc1ccc([As](=O)(O)O)c(O)c1	inactive: 3.95%
CC1CCNP(=O)(N(CCCl)CCCl)O1 (stereo not drawn)	inactive: 3.29%
Cc1cc(SC(NC=O)C(Cl)(Cl)Cl)ncn1 (stereo not drawn)	inactive: 2.03%
O=P(Nc1ccccn1)(c1cccc2ccccc12)c1cccc2ccccc12	inactive: -12.3%
O=[N+]([O-])c1ccc(Nc2ccc(Oc3ccc([N+](=O)[O-])cc3[N+](=O)[O-])cc2)c([N+](=O)[O-])c1	inactive: -1.32%

SMILES	activation
CCOC(=O)Nc1cccc([As](=O)(O)O)c1	inactive: 0.36%
Cc1ccc(OP(=O)(Nc2ccc([N+](=O)[O-])cn2)Oc2ccc(C)cc2)cc1	inactive: -1.51%
[N-]=[N+]=NC1CCCCC1NC(=O)c1cc([N+](=O)[O-])cc([N+](=O)[O-])c1 (stereo not drawn)	inactive: -6.61%
Cc1ccc2nc3c(c(C)c2c1)CC(C(Cl)Cl)S3 (stereo not drawn)	inactive: -1.85%
C[As](=O)(O)c1cccc(C(=O)O)c1	inactive: -1.02%
O=[As](O)(c1ccc(O)cc1)c1ccccc1O	inactive: -0.54%
COc1cc(C(=O)NCC2(N3CCOCC3)CCCCC2)ccc1OCC(C)C	inactive: 0.66%
O=[N+]([O-])c1ccc(-c2cc([N+](=O)[O-])c(O)c([N+](=O)[O-])c2)cc1	inactive: -2.37%
O=C(OC1CN2CCC1CC2)c1cccc2[nH]cnc12 (stereo not drawn)	inactive: -2.15%
CCN(CC)C(=S)SC(NC=O)C(Cl)(Cl)Cl (stereo not drawn)	inactive: 0.78%
CC(C)NC(=O)NP(=O)(Oc1ccccc1)Oc1ccccc1	inactive: -1.49%
ClCCSc1nnc(-c2cccnc2)o1	inactive: -4.38%
CC(C)c1ccc(OP(=O)(Nc2ccccn2)Oc2ccccc2F)cc1 (stereo not drawn)	inactive: 1.29%
COC(=O)C1(C)COP(=O)(N2CCCCCC2)OC1 (stereo not drawn)	inactive: 2.19%
O=P1(N(CCCl)CCCl)Nc2ccccc2N1	inactive: -2.89%
O=P1(N(CCCl)CCCl)OCCCN1CCCl (stereo not drawn)	inactive: 1.99%
COc1ccc2nc(NP(=O)(c3ccccc3)c3ccccc3)sc2c1	inactive: -15.2%
COc1cc(I)ccc1[As](=O)(O)O	inactive: 0.87%
Cc1c2c(nc3ccccc13)SC(C(Cl)Cl)C2 (stereo not drawn)	inactive: -1.94%
O=C(OC1CN2CCC1CC2)C12CC3CC(CC(C3)C1)C2 (stereo not drawn)	inactive: 3.2%
Cc1cc(=O)[nH]c(N[N+](=O)[O-])n1	inactive: -0.12%
O=[N+]([O-])c1cc(Oc2ccc([N+](=O)[O-])cc2C(F)(F)F)cc([N+](=O)[O-])c1	inactive: -2.8%
COc1ccc(N/C(=N/P(=O)(N2CCOCC2)N2CCOCC2)N2CCOCC2)cc1	inactive: -3.03%
